Patent US10632119B2, “Fused bicyclic 2,4-diaminopyrimidine derivative as a dual ALK and FAK inhibitor” (priority 2012, dated 2020)

[1] = female, Sprague-Dawley, rat, in vivo, 30 mg/kg/day, 4 weeks

CNC(=O)c1ccccc1Nc1nc(Nc2ccc3c(c2OC)CCC[C@H](N2CCN(CCO)CC2)C3)ncc1Cl [CEP-37440, 2-[[5-chloro-2-[[(6S)-6-[4-(2-hydroxyethyl)piperazin-1-yl]-1-methoxy-6,7,8,9-tetrahydro-5H-benzo[7]annulen-2-yl]amino]pyrimidin-4-yl]amino]-N-methyl-benzamide]
unscheduled deaths (1, 3, 10, 30 mg/kg/day, dosing phase): None of the unscheduled deaths were attributed to the drug
incidence of chronic inflammation and/or fibrosis of serosal surface of heart and lung (female, Sprague-Dawley, rat, in vivo, 30 mg/kg/day): 2/5
incidence of chronic inflammation and/or fibrosis of heart and lung surface [1]: 5/10
incidence of chronic inflammation in the thoracic cavity, total at scheduled sacrifices [1]: 7/15
incidence of chronic to chronic-active inflammation in connective tissue surrounding the thymus [1]: 4/10
